Earlier results as cited in publication PMC10674299, “Discovery of Guanfacine as a Novel TAAR1 Agonist: A Combination Strategy through Molecular Modeling Studies and Biological Assays” (Pharmaceuticals, 2023).
Several values for one entry are separate records, joined by “and”; a condition that tells them apart may be missing. Equal entries are not always repeated.

target: α2-ADR; details: read-out: α2-ADR Ki; cited from earlier work

Row | SMILES | Ki
1 | CN(Cc1ncc[nH]1)c1ccccc1 | 254 to 497 nM
2 | CC(C)N(Cc1ncc[nH]1)c1cccc(Cl)c1 | 4350 nM
3 | c1ccc(N(Cc2c[nH]cn2)C2CC2)cc1 | 62 to 330 nM
4 | c1ccc(CN(Cc2c[nH]cn2)c2ccccc2)cc1 | 128 to 521 nM
5 | c1ccc(N(Cc2c[nH]cn2)c2ccccc2)cc1 | 62 nM and 62 to 330 nM
